Most compounds without a hit are left out; they make up all but 16% or so of the library.
miR-21 reporter = miR-21 reporter, rising signal; HeLa miR-21 FLuc reporter, luciferase, 48 h; Potency, µM (doses to about 38.3 µM), for inactives: at the highest dose reporter change, positive = more light; 340,000 tested, under 10 active; AID 2288; active = well fitted rising curve with a large enough effect; inconclusive = small, poorly fitted or top-dose-only effect; inactive = no such curve, though single readings can be large or run the other way;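 further: % of control where 0% means no effect; miR-21 action dims this reporter so a rising signal means less miR-21 action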
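Compounds were titrated across several concentrations (up to approximately 40 uM) and incubated 48 hours with HeLa miR-21-FLuc reporter cells (miR-21 target sequence downstream of FLuc, endogenous miR-21). Readout was firefly luciferase luminescence after lytic detection reagent.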
uPA generation = blocks generation of uPA at the cell surface; cell surface uPA generation assay, qHTS; Potency, µM (titrated, usually from 38.3 µM), without a hit: at the highest dose activity change, negative = inhibition, most hits filed as inhibitors; 0.31% of 330,000 active; AID 540303; active = well fitted inhibition curve with a large enough effect; inconclusive = small, poorly fitted or top-dose-only effect; inactive = no such curve, though single readings can be large or run the other way; tested in mouse RAW 264.7 cells; also: potency is read from the fitted curve at half-maximal effect; % is scaled to controls: 0 for no effect and ±100 for the full control effect; nearly all actives have a fitted effect of over 55% in size
TDP1 block = TDP1 (human) enzyme inhibition; recombinant TDP1, AlphaScreen DNA substrate cleavage; Potency, µM (top dose mostly 130 µM), for the others: top-dose activity change, negative = inhibition, actives largely listed as inhibitors; 0.28% of 350,000 active; AID 485290; also: potency is read from the fitted curve at half-maximal effect; % is scaled to controls: 0 for no effect and ±100 for the full control effect; nearly all actives have a fitted effect of over 40% in size
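Tdp1 1 nM final; 15 min RT w/ cpd; substrate 15 nM, 5 min; beads 10 ug/ml, 10 min; AlphaScreen read. Neg ctrl: no enzyme.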
DT40 TDP1 no CPT = qHTS for Inhibitors of human tyrosyl-DNA phosphodiesterase 1 (TDP1): qHTS in cells in absence of CPT. DT40 Tdp1-/- hTDP1 cells, no CPT, ATP luminescence, 48 h. Potency, µM (series often up to 46.2 µM), without a hit: top-dose activity change, negative = growth inhibition, hits mostly inhibitors. 15% of 420,000 active. AID 686978, 2013; also: potency is read from the fitted curve at half-maximal effect; % is scaled to controls: 0 for no effect and ±100 for the full control effect; nearly all actives have a fitted effect of over 55% in size
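Readout: luminescence from CellTiter-Glo after 30 min in the dark at RT. Cells: DT40 Tdp1-/- with stable hTDP1, 400/well. Exposure: compounds alone, ≥48 hr, 37 °C.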
DT40 TDP1 CPT = DT40-hTDP1 cell growth loss with CPT | AID 686979 | 12% of 420,000 active | chicken DT40 Tdp1-/-;hTDP1 cells + 20 nM CPT, ATP luminescence, 48 h | Potency, µM (doses to about 46.2 µM), inactives show at the highest dose activity change, negative = growth inhibition, hits mostly inhibitors; also: potency is read from the fitted curve at half-maximal effect; % is scaled to controls: 0 for no effect and ±100 for the full control effect; nearly all actives have a fitted effect of over 55% in size
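Chicken DT40 Tdp1-/- cells stably complemented with human TDP1 were seeded at 400 cells/well in medium containing 20 nM camptothecin, exposed to pin-transferred compounds, and grown at 37 °C for at least 48 hr. Viability was read as ATP luminescence.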
* = called active by the depositor; u = inconclusive; x = no result; [ ] = dose if it differs, or a comment. Unless noted, calls follow the shape of the dose curve; as a rule, active = well fitted curve in the direction sought with a large enough effect; inconclusive = small, poorly fitted or top-dose-only effect, or another doubt; inactive = no such curve, though single readings can be large; an effect the other way counts as inactive or inconclusive.

#1 O=C(NCC(=O)N1CC=C(c2ccccc2)CC1)c1ccc(OC(F)F)cc1
#2 COc1cc(OC)cc(C(=O)NCC(=O)N2CC=C(c3ccccc3)CC2)c1
#3 O=C(NCC(=O)N1CC=C(c2ccccc2)CC1)c1ccccc1Br
#4 N[C@]1(C(=O)O)CCc2cc(C(=O)O)ccc21
#5 O=C(COCC(=O)NCc1ccccc1)NCc1ccccc1
#6 Nc1cccc2c(=O)c3ccccc3[nH]c12
#7 CCN(CC(=O)Nc1ccc(NC(C)=O)cc1)C(=O)C12CC3CC(CC(Cl)(C3)C1)C2
#8 OCCn1c(-c2ccc(F)cc2)csc1=Nc1ccccc1

| screen / no. | 1 | 2 | 3 | 4 | 5 | 6 | 7 | 8 |
| --- | --- | --- | --- | --- | --- | --- | --- | --- |
| miR-21 reporter | x | x | 11% | x | 0% | 4% | 1% | -22% |
| uPA generation | u | 4.5µM* | -3% | x | 2% | 1% | 2% | 2% |
| TDP1 block | -1% | x | 3% | -14%[56.1 µM] | 5% | u | 2% | 8% |
| DT40 TDP1 no CPT | 7.3µM* | 4.6µM* | 21µM* | -5% | -8% | 8.2µM* | 1% | 21µM* |
| DT40 TDP1 CPT | 7.3µM* | 3.3µM* | u | 8% | 5% | 13µM* | -3% | u |

Values by screen from the entries so far.
uPA generation for nos. 2 to 7 → 4.5µM*, -3%, x, 2%, 1%, 2%
TDP1 block for nos. 2 to 7 → x, 3%, -14%[56.1 µM], 5%, u, 2%

Additional entries
#9 OCCn1c(-c2ccc3c(c2)OCO3)csc1=Nc1ccccc1
#10 CCn1c(-c2ccccc2)csc1=Nc1ccc(O)cc1
#11 Cc1occc1C(=O)Nc1ccc(Br)cc1F
#12 O=c1[nH]c(NC2CCN(S(=O)(=O)c3ccccc3C(F)(F)F)CC2)nc2c1CCCC2
#13 CC1(C)CC(NC(=O)C2CCN(S(=O)(=O)c3ccccc3C(F)(F)F)CC2)CC(C)(C)N1
#14 O=C1NC2c3ccccc3CC2O1 (stereo unspecified)
#15 O=C1NC2c3c(I)sc(I)c3C(=O)C2O1 (stereo unspecified)
#16 O=C1NC2c3c(Cl)sc(Cl)c3C(=O)C2O1 (stereo unspecified)

| screen / no. | 9 | 10 | 11 | 12 | 13 | 14 | 15 | 16 |
| --- | --- | --- | --- | --- | --- | --- | --- | --- |
| miR-21 reporter | 1% | -52% | -36% | 15% | -7% | 5% | x | x |
| uPA generation | 0% | -11% | -3% | 18% | -10% | 0% | -12% | -11% |
| TDP1 block | 6% | 10% | 2% | 9% | 5% | x | x | x |
| DT40 TDP1 no CPT | 21µM* | u | -6% | 7.3µM* | -11% | 27% | 7.3µM* | 21µM* |
| DT40 TDP1 CPT | 16µM* | u | -4% | 6.5µM* | 0% | 0% | 6.5µM* | 21µM* |

Reformatted as tab-separated lines: part of the list above.
nr	structure	miR-21 reporter	uPA generation	TDP1 block	DT40 TDP1 no CPT	DT40 TDP1 CPT
12	O=c1[nH]c(NC2CCN(S(=O)(=O)c3ccccc3C(F)(F)F)CC2)nc2c1CCCC2	15%	18%	9%	7.3µM*	6.5µM*
10	CCn1c(-c2ccccc2)csc1=Nc1ccc(O)cc1	-52%	-11%	10%	u	u
15	O=C1NC2c3c(I)sc(I)c3C(=O)C2O1 (stereo unspecified)	x	-12%	x	7.3µM*	6.5µM*

(continued)
#17 CCOC(=O)C1CCCN(C(=O)CN2C(=O)/C(=C/c3ccc(OC)cc3)Oc3ccccc32)C1 (stereo unspecified)
#18 O=S(=O)(c1ccc2ccccc2c1)N1CCN(C(=S)Nc2ccc(F)c(Cl)c2)CC1
#19 CCc1cc(=O)oc2c(CNCc3ccc(OC)cc3OC)c(O)c(Cl)cc12
#20 Nc1ccc(CC(N)c2csc(Nc3cc(Oc4ccccc4)ncn3)n2)cc1 (stereo unspecified)
#21 c1ccc(Oc2cc(-c3ccccc3)ncn2)cc1
#22 COc1ccc(C(N)c2csc(Nc3cc(Oc4ccccc4)ncn3)n2)cc1 (stereo unspecified)
#23 Cc1nc2nc(COc3ccccc3)[nH]n2c(=O)c1Cl
#24 COc1ccc(N(C)C(=O)c2ccc3c(c2)nnn3C)cc1

| screen / no. | 17 | 18 | 19 | 20 | 21 | 22 | 23 | 24 |
| --- | --- | --- | --- | --- | --- | --- | --- | --- |
| miR-21 reporter | -16% | 23% | -2% | x | -57% | x | 2% | -5% |
| uPA generation | -20% | -1% | 2% | x | -4% | x | -1% | -4% |
| TDP1 block | 0% | 1% | x | x | -2% | x | 3% | 7% |
| DT40 TDP1 no CPT | 13µM* | u | -14% | 23µM* | -27% | 23µM* | 3% | 0% |
| DT40 TDP1 CPT | u | u | 12% | u | -10% | 23µM* | -4% | 5% |

#25 COc1ccc(NC(=O)C(=O)NCC2(c3ccc(OC)c(OC)c3)CCCC2)cc1
#26 COc1cccc(CCc2ccccc2OCC(CN(C)C)OC(=O)CCC(=O)O)c1 (stereo unspecified)
#27 COc1cc(C)c(Cl)cc1S(=O)(=O)NCCCN1CCOCC1
#28 CCC(Sc1nncn1C)C(=O)Nc1nnc(-c2ccccc2Cl)s1 (stereo unspecified)
#29 COc1ccc(N/N=C/c2c(C(=O)O)ccc3ccccc23)cc1
#30 COc1ccc(CCNC(=O)Cn2c(=O)c3cccn3c3cccnc32)c(OC)c1OC
#31 O=C(COC(=O)Cn1cnc2ccccc21)Nc1cc2c(cc1Cl)C(=O)c1ccccc1C2=O
#32 O=C(COC(=O)Cn1cnc2ccccc21)Nc1cc(S(=O)(=O)N2CCOCC2)ccc1Cl

| screen / no. | 25 | 26 | 27 | 28 | 29 | 30 | 31 | 32 |
| --- | --- | --- | --- | --- | --- | --- | --- | --- |
| miR-21 reporter | -1% | x | 0% | -43% | 15% | 0% | -33% | -1% |
| uPA generation | x | x | -21% | -20% | 10µM* | -10% | 5µM* | 1% |
| TDP1 block | 0% | x | 4% | 4% | 0% | -3% | -1% | x |
| DT40 TDP1 no CPT | u | 11µM* | -2% | 10% | 3.3µM* | u | 16µM* | -14% |
| DT40 TDP1 CPT | -28% | 16µM* | -3% | -29% | 2.6µM* | -20% | 21µM* | -6% |

#33 Cn1c(SCC(=O)NNC(=O)c2ccccc2Br)nnc1C(F)(F)F
#34 Cc1ccc(Cl)cc1NC(=O)Cn1c(=O)n(Cc2ccc(C(=O)NCc3ccc4c(c3)OCO4)cc2)c(=O)c2ccccc21
#35 Cc1ccc(CN2CCSc3ccc(C(=O)N4CCN(c5ccc(Cl)cc5)CC4)cc32)cc1
#36 O=C(c1ccc2c(c1)N(Cc1ccc(F)cc1)CCS2)N1CCOCC1
#37 CN1CCN(C(=O)c2ccc3c(c2)N(Cc2ccccc2)CCS3)CC1
#38 Cc1ccc(CN2CCSc3ccc(C(=O)N4CCN(c5cccc(C)c5C)CC4)cc32)cc1
#39 CCCCn1nnnc1C1(C)CCC(=O)N1CCOc1ccccc1 (stereo unspecified)
#40 CC(NC(=O)C(c1ccccc1)c1ccccc1)c1ccc(S(N)(=O)=O)cc1 (stereo unspecified)

| screen / no. | 33 | 34 | 35 | 36 | 37 | 38 | 39 | 40 |
| --- | --- | --- | --- | --- | --- | --- | --- | --- |
| miR-21 reporter | x | -30% | -1% | 1% | 1% | 3% | x | 3% |
| uPA generation | -4% | x | x | 5% | -25% | x | x | 6% |
| TDP1 block | -11% | 1% | 4% | 6% | x | 1% | x | x |
| DT40 TDP1 no CPT | -1% | -16% | 21µM* | u | u | 5.2µM* | -10% | -9% |
| DT40 TDP1 CPT | -5% | -22% | 15µM* | u | u | 8.2µM* | -19% | -6% |

#41 CCc1nn2c(-c3ccccc3OC)ccnc2c1-c1ccccc1
#42 COc1ccccc1-c1ccnc2c(-c3ccc(Br)cc3)c(C)nn12
#43 CCc1nn2c(-c3ccccc3OC)ccnc2c1-c1ccc(F)cc1
#44 Cc1ccc2c(=O)cc(C(=O)N(Cc3ccc(C(C)(C)C)cc3)C3CCS(=O)(=O)C3)oc2c1 (stereo unspecified)
#45 Cc1nc2sccn2c1CN1CCOc2ccc(CN3C[C@@H](C)O[C@@H](C)C3)cc2C1
#46 C[C@@H]1CN(Cc2ccc3c(c2)CN(Cc2cccn2-c2cccnc2)CCO3)C[C@H](C)O1
#47 C[C@@H]1CN(Cc2ccc3c(c2)CN(Cc2cccn2-c2ccccn2)CCO3)C[C@H](C)O1
#48 Fc1ccc(N2CCN(Cc3ccc4c(c3)CN(Cc3cccn3-c3cccnc3)CCO4)CC2)cc1

| screen / no. | 41 | 42 | 43 | 44 | 45 | 46 | 47 | 48 |
| --- | --- | --- | --- | --- | --- | --- | --- | --- |
| miR-21 reporter | 1% | -11% | -8% | 0% | x | x | x | x |
| uPA generation | x | x | x | x | x | x | x | x |
| TDP1 block | -7% | -1% | 2% | 7% | x | x | x | x |
| DT40 TDP1 no CPT | 21µM* | -23% | u | u | 8.2µM* | 15µM* | -2% | 21µM* |
| DT40 TDP1 CPT | u | -18% | 23µM* | u | 10µM* | -2%[9.04 µM] | -5%[9.04 µM] | u |
